The target in data set [1] is T1, coagulation factor Xa (FXa) (Bos taurus, UniProt P00743).
T1 construct: purchased New England Biolabs (Hitchin, UK)
Nature of the data set: FXa activity assay in vitro (chromogenic substrate method). The class given is biochemical. The conditions noted are these: FXa 0.5 nM, pH 7.4, 37 °C, OD 405 nm; read-out: IC50 against coagulation factor Xa (FXa). As for the experimental part: 10 µL of FXa (final concentration of 0.5 nM), 40 µL of Tris buffer (adjusted to pH 7.4 with HCl containing 0.3 M NaCl and 50 mM Tris) and 10 µL of test compounds were added to the well, respectively. The negative control was performed using the same mixed solutions except that the test compound was replaced with DMSO. […] After 15 min of incubation at 37 °C, FXa substrate (40 μL, final concentration of […]) was added and then was incubated 37 °C for 25 min [3]. The optical density (OD) values at 405 nm were evaluated by an automated microplate reader. […] Inhibition rate was calculated by the following formula: Anti-FXa activity = (V0 − Vi)/V0 [21]. The IC50 value was subsequently calculated by SPSS 19.0.

Details of data set [2]: method as in PMID 18957175. The conditions noted are these: acidic and high-temperature conditions, especially in the stomach; cited from earlier work.
In a further data set the target is T2, human FIIa (thrombin) (Homo sapiens, UniProt P00734).
T2 construct: purchased Hyphen BioMed (Paris, France)
Put plainly: Thrombin inhibition in vitro (chromogenic substrate CS-01(38)). The class given is biochemical. The conditions noted are these: pH 7.4, 37 °C, 405 nm. As for the experimental part: The inhibition of thrombin was evaluated by human FIIa and chromogenic substrate CS-01(38) in 96-well microtiter plates at room temperature. Compounds 5, 13 and 18 as well as the positive reagent Ximelagatran were dissolved in DMSO to a concentration of 1mM and then serially diluted to a range of 10 μM to 100 μM, respectively. 8 μL of FIIa (3 NIH U/mL), 80 μL of Tris buffer (adjusted to pH 7.4 with HCl) containing 0.3 M NaCl and 50 mM Tris and 8 μL of test compounds were added to the well, respectively. The negative control was performed using the same mixed solutions except that tested compounds were replaced with DMSO. The positive control was performed using the same mixed solutions except that the test compounds were replaced with ximelagatran. After incubation at 37 °C for 15 min, 12 μL of FIIa substrate solution (4 mM) was added and then incubated at 37 °C for 25 min [3]. The anti-FIIa activity was measured at 405 nm using a microplate reader.

The IC50 is the concentration needed to halve the response being measured.

Turning to 20(R)-Rg3, the IC50 in data set [1] was determined as 815 nM.

Consider ginsenoside Rg3, for which the Chemical structure stability result in data set [2] is listed as “unstable chemical structure”. In addition, the IC50 was 127 nM in data set [1] and 92600 nM at human FIIa (thrombin).

These data come from paper PMC6154706, “Inhibitory Effect of Triterpenoids from Panax ginseng on Coagulation Factor X” (Molecules : A Journal of Synthetic Chemistry and Natural …, 2017).
